pEC50: −log10 of the molar value.
Molecular target: T1, GABAA receptor α1β3γ2s (α1) (Homo sapiens, UniProt P14867+P18507+P28472)
T1 construct: Human GABAA receptor alpha 1 subunit amino acid; Human GABAA receptor beta 3 variant 1 subunit amino acid; Human GABAA receptor gamma 2 variant 1 (short) subunit amino acid; expressed in transfected cells
Assay: Membrane potential assay, CHO cell line expressing GABAA α1β3γ2s
Type: cell-based

Chains of the proteins cited; added tags and fusions are not shown. Residues count along the entry.
UniProt P14867, 28-456: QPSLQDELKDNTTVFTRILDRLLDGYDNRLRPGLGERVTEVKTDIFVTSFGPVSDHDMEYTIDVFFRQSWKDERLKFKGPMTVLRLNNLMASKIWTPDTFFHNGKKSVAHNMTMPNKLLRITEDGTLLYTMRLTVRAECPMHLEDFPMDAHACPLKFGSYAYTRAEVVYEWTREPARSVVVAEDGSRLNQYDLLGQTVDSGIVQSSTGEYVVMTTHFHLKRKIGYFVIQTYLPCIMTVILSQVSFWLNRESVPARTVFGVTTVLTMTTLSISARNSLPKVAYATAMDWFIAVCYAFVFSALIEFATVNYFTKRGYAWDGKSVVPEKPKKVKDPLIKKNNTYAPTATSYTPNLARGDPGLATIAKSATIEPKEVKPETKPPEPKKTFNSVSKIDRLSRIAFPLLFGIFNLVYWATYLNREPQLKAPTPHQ
UniProt P18507, 40-467 isoform P18507-1 limits assumed: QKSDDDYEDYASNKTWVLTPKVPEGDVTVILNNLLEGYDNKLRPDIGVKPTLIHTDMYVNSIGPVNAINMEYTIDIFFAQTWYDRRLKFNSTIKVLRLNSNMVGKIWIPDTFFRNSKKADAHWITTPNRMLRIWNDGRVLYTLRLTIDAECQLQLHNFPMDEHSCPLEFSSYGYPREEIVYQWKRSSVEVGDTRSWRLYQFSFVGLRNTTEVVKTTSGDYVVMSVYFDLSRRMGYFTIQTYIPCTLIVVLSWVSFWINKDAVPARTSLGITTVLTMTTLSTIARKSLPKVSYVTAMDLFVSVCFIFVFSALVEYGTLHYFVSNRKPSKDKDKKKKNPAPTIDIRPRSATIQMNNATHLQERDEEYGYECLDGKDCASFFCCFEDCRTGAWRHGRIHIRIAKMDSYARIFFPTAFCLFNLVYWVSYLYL
UniProt P28472, 26-473: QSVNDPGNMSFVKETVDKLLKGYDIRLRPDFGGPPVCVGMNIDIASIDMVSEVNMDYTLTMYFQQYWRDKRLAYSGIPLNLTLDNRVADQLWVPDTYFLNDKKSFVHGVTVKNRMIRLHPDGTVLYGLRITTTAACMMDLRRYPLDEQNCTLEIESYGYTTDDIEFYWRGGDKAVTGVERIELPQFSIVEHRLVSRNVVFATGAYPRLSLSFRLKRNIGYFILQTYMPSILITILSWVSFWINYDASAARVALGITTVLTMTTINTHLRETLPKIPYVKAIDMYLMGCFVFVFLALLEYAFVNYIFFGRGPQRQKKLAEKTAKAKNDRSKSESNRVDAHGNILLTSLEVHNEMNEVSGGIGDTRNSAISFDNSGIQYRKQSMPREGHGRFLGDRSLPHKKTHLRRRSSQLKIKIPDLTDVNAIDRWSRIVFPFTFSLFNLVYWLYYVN

How did the pEC50 turn out when `OCCN(CCO)c1nc(N2CCCCC2)c2nc(N(CCO)CCO)nc(N3CCCCC3)c2n1` [Dipyridamole] was run?
The pEC50 was 5.15.
